Reference: the NIST ThermoML archive (doi:10.1021/je3010535)
± gives the expanded uncertainty stated by the source.

Assay: Henry's Law constant (molality scale); of the first substance listed, at infinite dilution; xn = mol fraction of the nth substance listed
Conditions: Liquid, Chromatography, x1 = 0

With CCl [chloromethane] + O the “Henry's Law constant” value (274.15 K) was 705 ± 210 kPa·kg/mol, the “Henry's Law constant” value (313.15 K) was 1720 ± 520 kPa·kg/mol and the “Henry's Law constant” value (326.15 K) was 2670 ± 800 kPa·kg/mol.
